The chains behind the UniProt entries cited, without tags or fusion partners.
UniProt P08183, whole entry: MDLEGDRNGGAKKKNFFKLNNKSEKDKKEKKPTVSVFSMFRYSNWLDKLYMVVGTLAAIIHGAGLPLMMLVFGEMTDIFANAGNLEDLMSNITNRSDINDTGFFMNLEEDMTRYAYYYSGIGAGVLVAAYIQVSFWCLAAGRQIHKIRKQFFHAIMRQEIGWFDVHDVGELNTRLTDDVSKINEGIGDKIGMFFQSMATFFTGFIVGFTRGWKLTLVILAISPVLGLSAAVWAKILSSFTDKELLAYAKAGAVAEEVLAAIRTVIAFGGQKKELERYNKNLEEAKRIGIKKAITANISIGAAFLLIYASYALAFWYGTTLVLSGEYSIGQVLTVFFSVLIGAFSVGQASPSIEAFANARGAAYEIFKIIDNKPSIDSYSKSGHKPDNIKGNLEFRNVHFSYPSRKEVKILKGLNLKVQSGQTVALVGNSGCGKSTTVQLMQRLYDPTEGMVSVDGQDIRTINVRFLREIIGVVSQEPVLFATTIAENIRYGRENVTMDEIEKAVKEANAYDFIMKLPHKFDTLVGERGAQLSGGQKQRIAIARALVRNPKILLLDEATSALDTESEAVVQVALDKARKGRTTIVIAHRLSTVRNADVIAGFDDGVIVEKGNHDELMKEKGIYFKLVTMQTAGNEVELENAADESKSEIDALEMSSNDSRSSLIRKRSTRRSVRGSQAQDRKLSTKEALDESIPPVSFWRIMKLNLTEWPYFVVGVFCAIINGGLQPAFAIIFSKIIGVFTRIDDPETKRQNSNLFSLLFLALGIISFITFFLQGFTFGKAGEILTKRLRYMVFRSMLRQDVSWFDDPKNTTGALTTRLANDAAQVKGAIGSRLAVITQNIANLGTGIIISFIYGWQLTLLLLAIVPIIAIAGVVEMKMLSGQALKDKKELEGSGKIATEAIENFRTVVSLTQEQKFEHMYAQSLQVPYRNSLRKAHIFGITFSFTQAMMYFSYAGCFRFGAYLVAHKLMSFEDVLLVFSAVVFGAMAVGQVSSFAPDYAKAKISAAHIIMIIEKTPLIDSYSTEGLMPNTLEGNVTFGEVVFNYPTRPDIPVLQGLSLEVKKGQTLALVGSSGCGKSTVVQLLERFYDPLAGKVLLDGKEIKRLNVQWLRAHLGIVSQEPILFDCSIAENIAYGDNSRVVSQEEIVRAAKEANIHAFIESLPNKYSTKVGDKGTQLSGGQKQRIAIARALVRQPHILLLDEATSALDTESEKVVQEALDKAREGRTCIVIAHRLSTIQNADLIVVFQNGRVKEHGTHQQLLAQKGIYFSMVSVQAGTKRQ

In the data set the target is P-glycoprotein (Homo sapiens, UniProt P08183). The procedure:
P-glycoprotein inhibition has been determined with an in vitro assay. […] Therefore, the initial pool of compounds screened included excipients that were acceptable for oral or IV use and included PEG in the chemical structure. Compounds were first screened for toxicity in the NIH3T3 cell line and then tested for P-gp inhibition with paclitaxel using the protocol outlined below:
Day 0: Seed cells and incubate.
Day 1: Add potential P-gp inhibitor at fixed concentration and paclitaxel at various concentrations and incubate for 2 days.
Day 3: Add MTT and extraction/lysis buffer.
Day 4: Read absorbance to measure cell growth. Calculate IC50 to determine amount of paclitaxel required for cell death
After calculations of IC50 values, relative rank order of the compounds were determined.
On to “Macrogol-15 hydroxystearate [Solutol HS]”, for which the “P-gp inhibition measured by an IC50 ratio” value is reported as greater than 1.0.
Turning to PEG 50 stearate, the “P-gp inhibition measured by an IC50 ratio” value was greater than 1.0.
For the substance PEG-12 stearate, the “P-gp inhibition measured by an IC50 ratio” value is on record as greater than 1.0.
Turning to PEG-20 stearate, the “P-gp inhibition measured by an IC50 ratio” value is greater than 1.0.
To PEG-25 stearate belongs greater than 1.0; to PEG-30 stearate, greater than 1.0.
Consider PEG-40 stearate, for which the “P-gp inhibition measured by an IC50 ratio” value is greater than 1.0.
As for PEG-45 stearate, the “P-gp inhibition measured by an IC50 ratio” value was greater than 1.0.
For polysorbate 40, the “P-gp inhibition measured by an IC50 ratio” value was greater than 1.0.
Consider polysorbate 60, for which the “P-gp inhibition measured by an IC50 ratio” value is recorded as greater than 1.0.
Turning to polysorbate 85, the “P-gp inhibition measured by an IC50 ratio” value is reported as greater than 1.0.
